Test system: P2X7R
Test: P2X7R expression in mouse brain by immunohistochemistry after paroxetine
Assay type: in vivo
Conditions: paroxetine 10 mg/kg twice per day, 28 days
Method: The expression of P2X7R was further studied by immunohistochemistry of serial sections of complete mouse brains using a polyclonal antibody directed against an internal peptide of P2X7R (Santa Cruz Biotechnology). The brains from stress-free mice were shock frozen, cut into 16 μm slices and fixed with paraformaldehide for 5 minutes. The sections were blocked for 30 minutes at room temperature with 1:10 horse serum. All antibodies were diluted in TBST buffer (Tris-buffered saline with 0.05% Tween-20). The first antibody was used in a dilution 1:200 and incubated overnight. All washes were performed with TBST buffer. As a secondary antibody, an anti-goat IgG biotinylated (Vector Laboratories) was used and detection was performed using the streptavidin-biotin-horse-radish peroxidase complex system (Vector Laboratories) in combination with diaminobencidine. Slides were counterstained with toluidine blue using standard procedures. The same procedure in the absence of the primary antibody was performed as a negative control. As a positive control to test the Preservation of the tissue was verified with an antibody specific for the protein Patched1 (Santa Cruz Biotechnology). Patched1 was used as positive control since it stains all relevant brain structures and is not affected by stress or antidepressants. Very specific staining pattern was detected, consistent with the specific subcellular localization of P2X7R in brain cells. Negative controls were completely devoid of signal.
The expression of P2X7R in the brains of mice under stress-free conditions, and mice under mild stress produced by the vehicle application, and mice under paroxetine treatment was evaluated using three different brains from each group. […] This effect was observed all along the hippocampus but was more evident in the polymorph layer near the dentate gyrus. […] Therefore, P2X7R expression is strongly regulated in two specific brain areas involved in depression and stress.

Compound: Fc1ccc([C@@H]2CCNC[C@H]2COc2ccc3c(c2)OCO3)cc1 [paroxetine]
- P2X7R expression in the ependymal cells: No significant change
- P2X7R expression in the hippocampus: marked stimulation above basal levels
- P2X7R expression in the olfactory bulb: No significant change
- P2X7R expression in the periventricular nucleus of the hypothalamus: slight inhibition of P2X7R expression
- P2X7R expression in the subcommissural organ: remained unchanged

From US20060110385A1, “Means and methods for diagnosing and treating affective disorders” (Affectis Pharmaceuticals AG, priority 2003, published 2006)
